From ChEMBL document CHEMBL1143275, “Positive allosteric modulators of the metabotropic glutamate receptor subtype 4 (mGluR4). Part II: Challenges in hit-to-lead” (Bioorg Med Chem Lett, 2009)

Protein sequences, listed by entry. Tags and fused reporters are not part of them. Lines headed by an entry give the natural chain unless they say otherwise; changes in a name come on top.
UniProt Q14833: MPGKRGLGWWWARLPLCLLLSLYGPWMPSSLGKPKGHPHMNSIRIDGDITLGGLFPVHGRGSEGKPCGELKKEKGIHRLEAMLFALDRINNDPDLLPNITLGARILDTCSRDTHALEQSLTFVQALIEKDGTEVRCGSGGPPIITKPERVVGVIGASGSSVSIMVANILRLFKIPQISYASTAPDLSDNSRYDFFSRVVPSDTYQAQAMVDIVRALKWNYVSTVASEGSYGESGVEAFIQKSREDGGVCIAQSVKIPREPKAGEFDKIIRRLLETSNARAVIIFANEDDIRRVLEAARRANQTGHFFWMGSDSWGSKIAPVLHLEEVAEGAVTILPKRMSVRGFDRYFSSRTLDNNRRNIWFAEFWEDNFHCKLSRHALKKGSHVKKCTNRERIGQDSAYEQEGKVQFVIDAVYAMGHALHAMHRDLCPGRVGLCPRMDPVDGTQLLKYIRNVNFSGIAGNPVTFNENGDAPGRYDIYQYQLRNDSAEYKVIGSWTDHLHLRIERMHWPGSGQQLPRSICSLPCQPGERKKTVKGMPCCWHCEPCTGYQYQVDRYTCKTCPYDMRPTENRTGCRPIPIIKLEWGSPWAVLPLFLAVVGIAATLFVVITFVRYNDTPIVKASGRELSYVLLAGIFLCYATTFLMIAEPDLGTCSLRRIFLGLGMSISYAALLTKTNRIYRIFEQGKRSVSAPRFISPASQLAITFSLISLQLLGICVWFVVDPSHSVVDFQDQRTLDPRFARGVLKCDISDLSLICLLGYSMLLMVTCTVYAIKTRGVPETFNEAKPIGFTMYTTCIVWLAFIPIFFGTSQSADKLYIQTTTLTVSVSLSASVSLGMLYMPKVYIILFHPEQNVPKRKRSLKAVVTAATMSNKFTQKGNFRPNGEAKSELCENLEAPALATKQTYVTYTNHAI

Target: Metabotropic glutamate receptor 4 (Homo sapiens, UniProt Q14833)
Test: Activation of human mGluR4 expressed in CHO cells coexpressing Gqi5 protein assessed as fold shifting of glutamate-induced response at 30 uM
Type: cell-based

SMILES | fold change (FC)
O=C(Nc1ccccc1)[C@]12C[C@H]1/C(=N\O)c1ccccc1O2 | 11.8
O=C(O)[C@H]1CCCC[C@H]1C(=O)Nc1cc(Cl)cc(Cl)c1 | 6.4
